Measurements published in PubChem BioAssay (Tox21).
Where “and” joins values, the source holds several entries; their conditions need not be identical. Equal values may be shown once. This is a selection; strong and weak results do not stand in their true shares. Results filed as inconclusive are left out. Where a structure was tested more than once in an assay, its records may differ in their call. Calls of active or inactive are those of the source. Unless noted, calls come from the whole dose curve; as a rule, active = well fitted curve in the direction sought with a large enough effect in the repeat runs; inconclusive = weak or mixed curves; inactive = no such curve, though single readings can be large; an effect the other way counts as inactive or inconclusive.

By UniProt entry, the sequences of proteins in these tests, tags left out.
UniProt P10275, whole entry: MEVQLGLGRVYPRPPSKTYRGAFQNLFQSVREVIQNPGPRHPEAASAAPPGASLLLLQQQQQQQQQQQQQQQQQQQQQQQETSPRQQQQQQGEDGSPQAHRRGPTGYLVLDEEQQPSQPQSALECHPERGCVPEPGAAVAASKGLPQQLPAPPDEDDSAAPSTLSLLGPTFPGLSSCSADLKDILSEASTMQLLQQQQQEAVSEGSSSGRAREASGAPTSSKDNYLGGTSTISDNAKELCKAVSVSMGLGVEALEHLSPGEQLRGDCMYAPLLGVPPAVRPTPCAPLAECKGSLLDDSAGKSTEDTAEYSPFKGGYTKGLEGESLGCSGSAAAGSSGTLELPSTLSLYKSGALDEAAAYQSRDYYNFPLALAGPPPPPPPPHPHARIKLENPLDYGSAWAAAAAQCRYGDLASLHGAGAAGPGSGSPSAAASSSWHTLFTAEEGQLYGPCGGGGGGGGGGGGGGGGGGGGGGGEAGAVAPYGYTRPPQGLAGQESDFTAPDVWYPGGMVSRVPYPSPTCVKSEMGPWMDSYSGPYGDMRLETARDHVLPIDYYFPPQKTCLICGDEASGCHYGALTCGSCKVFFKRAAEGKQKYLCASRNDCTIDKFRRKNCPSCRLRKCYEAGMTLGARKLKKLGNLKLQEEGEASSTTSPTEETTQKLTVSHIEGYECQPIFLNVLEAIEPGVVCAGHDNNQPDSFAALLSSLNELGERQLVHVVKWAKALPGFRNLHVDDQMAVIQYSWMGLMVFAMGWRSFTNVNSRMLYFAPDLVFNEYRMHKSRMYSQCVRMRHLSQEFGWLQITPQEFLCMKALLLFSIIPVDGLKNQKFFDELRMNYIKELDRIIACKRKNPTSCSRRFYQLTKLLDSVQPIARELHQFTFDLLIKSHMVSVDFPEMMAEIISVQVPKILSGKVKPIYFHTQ
UniProt P03372, whole entry: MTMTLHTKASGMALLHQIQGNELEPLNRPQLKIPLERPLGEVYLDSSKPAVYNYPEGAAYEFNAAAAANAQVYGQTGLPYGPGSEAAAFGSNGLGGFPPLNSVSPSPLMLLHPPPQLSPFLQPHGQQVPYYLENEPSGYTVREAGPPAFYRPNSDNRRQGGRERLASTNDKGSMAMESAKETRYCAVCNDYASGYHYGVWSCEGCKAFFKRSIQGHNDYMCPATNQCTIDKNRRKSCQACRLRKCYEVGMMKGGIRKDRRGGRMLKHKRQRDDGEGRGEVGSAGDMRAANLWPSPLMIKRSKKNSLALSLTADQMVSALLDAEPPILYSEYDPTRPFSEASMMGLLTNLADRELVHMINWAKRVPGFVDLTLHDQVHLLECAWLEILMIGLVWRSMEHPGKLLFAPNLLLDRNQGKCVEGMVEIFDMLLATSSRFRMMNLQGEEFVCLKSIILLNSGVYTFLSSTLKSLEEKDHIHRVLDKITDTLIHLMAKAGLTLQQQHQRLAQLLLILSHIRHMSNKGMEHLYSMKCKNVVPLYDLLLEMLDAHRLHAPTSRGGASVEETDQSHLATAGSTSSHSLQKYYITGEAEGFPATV
UniProt P11511, whole entry: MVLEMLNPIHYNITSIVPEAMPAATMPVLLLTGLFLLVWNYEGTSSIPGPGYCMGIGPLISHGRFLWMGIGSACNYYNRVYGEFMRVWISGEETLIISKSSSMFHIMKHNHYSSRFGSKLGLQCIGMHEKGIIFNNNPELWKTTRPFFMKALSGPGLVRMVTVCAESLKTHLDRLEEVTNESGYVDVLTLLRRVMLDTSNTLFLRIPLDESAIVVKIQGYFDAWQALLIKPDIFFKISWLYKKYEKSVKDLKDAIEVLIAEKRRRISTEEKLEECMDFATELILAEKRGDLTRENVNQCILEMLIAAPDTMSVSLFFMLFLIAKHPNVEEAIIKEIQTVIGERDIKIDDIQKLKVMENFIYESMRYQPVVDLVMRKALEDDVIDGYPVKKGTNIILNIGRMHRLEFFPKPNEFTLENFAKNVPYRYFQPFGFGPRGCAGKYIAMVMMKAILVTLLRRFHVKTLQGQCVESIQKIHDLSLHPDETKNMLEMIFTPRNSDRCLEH
UniProt P35869, whole entry: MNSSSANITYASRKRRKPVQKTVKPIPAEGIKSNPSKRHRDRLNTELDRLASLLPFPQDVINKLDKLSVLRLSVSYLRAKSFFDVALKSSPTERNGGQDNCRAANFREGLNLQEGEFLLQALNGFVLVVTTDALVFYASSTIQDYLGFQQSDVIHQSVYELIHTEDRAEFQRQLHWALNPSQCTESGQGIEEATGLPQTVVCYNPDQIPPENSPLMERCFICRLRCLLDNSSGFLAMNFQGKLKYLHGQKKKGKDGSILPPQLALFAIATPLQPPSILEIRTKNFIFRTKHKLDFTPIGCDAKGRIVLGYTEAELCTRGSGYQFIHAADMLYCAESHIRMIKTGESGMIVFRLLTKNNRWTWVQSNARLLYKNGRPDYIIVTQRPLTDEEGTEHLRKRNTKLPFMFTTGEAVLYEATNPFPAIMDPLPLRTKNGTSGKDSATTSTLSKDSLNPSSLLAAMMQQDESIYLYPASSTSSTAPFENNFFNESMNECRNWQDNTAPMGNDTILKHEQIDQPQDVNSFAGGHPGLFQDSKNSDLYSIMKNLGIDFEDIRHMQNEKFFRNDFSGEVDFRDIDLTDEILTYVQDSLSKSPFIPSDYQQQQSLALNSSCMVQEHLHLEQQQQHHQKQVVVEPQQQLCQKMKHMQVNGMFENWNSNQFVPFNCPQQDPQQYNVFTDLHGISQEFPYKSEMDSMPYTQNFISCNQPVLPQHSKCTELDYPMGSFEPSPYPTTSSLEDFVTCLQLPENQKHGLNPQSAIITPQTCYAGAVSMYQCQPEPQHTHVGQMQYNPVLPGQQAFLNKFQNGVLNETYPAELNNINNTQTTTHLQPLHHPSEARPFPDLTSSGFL

Assays:
[1] = qHTS assay to identify small molecule antagonists of the glucocorticoid receptor (GR) signaling pathway - cell viability counter screen (AID 720693); conditions: GR-bla HeLa viability, CellTiter-Glo luminescence, 18 h, with 5 nM dexamethasone present; at 58.5 µM (top of the series); note: nearly all actives have a fitted effect of over 55% in size
[2] = qHTS assay for identifying genotoxic compounds that show differential cytotoxicity against isogenic chicken DT40 cell lines with known DNA damage response pathways - wild type cell line (AID 743012); note: nearly all actives have a fitted effect of over 60% in size; note: potency is the fitted concentration of half-maximal effect
Method in brief: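 300 wt DT40 cells/well; cpd (DMSO) pintool-transferred after ~0.5 h at 37 C/5% CO2; 40 h incubation; CellTiter-Glo added, 30 min RT; luminescence read.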

[3] = qHTS assay for identifying genotoxic compounds that show differential cytotoxicity against isogenic chicken DT40 cell lines with known DNA damage response pathways - Rev3 mutant cell line (AID 743014); note: nearly all actives have a fitted effect of over 55% in size; note: potency is the fitted concentration of half-maximal effect
[4] = qHTS assay for identifying genotoxic compounds that show differential cytotoxicity against isogenic chicken DT40 cell lines with known DNA damage response pathways - Rad54/Ku70 mutant cell line (AID 743015); note: nearly all actives have a fitted effect of over 60% in size; note: potency is the fitted concentration of half-maximal effect
[5] = molecular target: Androgen receptor (Homo sapiens) (UniProt P10275); experiment: qHTS assay to identify small molecule agonists of the androgen receptor (AR) signaling pathway (AID 743036; active = well fitted activation curve with a large enough effect in the signal ratio in the repeat runs, with a control signal flat, not every such curve was filed as active; the % refers to the signal ratio); conditions: HEK293 AR-UAS-bla GripTite, beta-lactamase FRET ratio, 16 h; at 62.4 µM (top of the series)
[6] = molecular target: Androgen receptor (Homo sapiens) (UniProt P10275); experiment: qHTS assay to identify small molecule agonists of the androgen receptor (AR) signaling pathway using the MDA cell line (AID 743040; note: nearly all actives have a fitted effect of over 20% in size); conditions: MDA-kb2 AR-luc cells, MMTV luciferase, 16 h, stronger effect = higher value; at 70.3 µM (top of the series)
[7] = test system: thyroid hormone receptor (rat, GH3 cells); experiment: qHTS assay to identify small molecule agonists of the thyroid receptor (TR) signaling pathway (AID 743066; calls by dose curve); conditions: GH3.TRE-Luc cells, TR agonist luciferase, 24 h; at 83.9 µM (top of the series)
[8] = qHTS assay to identify small molecule antagonists of the estrogen receptor alpha (ER-alpha) signaling pathway - cell viability counter screen (AID 743074; calls by dose curve; note: nearly all actives have a fitted effect of over 45% in size); conditions: ERalpha-bla HEK293 viability, CellTiter-Glo luminescence, 18 h; at 69.4 µM (top of the series)
[9] = molecular target: Estrogen receptor (Homo sapiens) (UniProt P03372); experiment: qHTS assay to identify small molecule agonists of the estrogen receptor alpha (ER-alpha) signaling pathway (AID 743075; calls by dose curve); conditions: HEK293 ER-alpha-UAS-bla, beta-lactamase FRET ratio, 18 h; at 70.1 µM (top of the series)
[10] = qHTS assay to identify small molecule antagonists of the estrogen receptor alpha (ER-alpha) signaling pathway using the BG1 cell line - cell viability counter screen (AID 743081);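 note: compound given together with 17beta-estradiol as the ER stimulus; nearly all actives have a fitted effect of over 45% in size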; note: potency is the fitted concentration of half-maximal effect
Aromatase (Homo sapiens) = Aromatase (Homo sapiens) (UniProt P11511); experiment: qHTS assay to identify aromatase inhibitors (AID 743083); conditions: MCF-7 aro ERE, testosterone-driven ERE luciferase, 24 h; at 70.3 µM (top of the series); note: nearly all actives have a fitted effect of over 55% in size
[11] = qHTS assay to identify aromatase inhibitors - cell viability counter screen (AID 743084); conditions: MCF-7 aro ERE viability, CellTiter-Fluor, 24 h; at 70.3 µM (top of the series);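 note: cells stimulated with testosterone during compound exposure; nearly all actives have a fitted effect of over 55% in size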
[12] = qHTS assay to identify small molecule antagonists of the androgen receptor (AR) signaling pathway - cell viability counter screen (AID 743033; note: nearly all actives have a fitted effect of over 45% in size); conditions: AR-bla HEK293 viability, CellTiter-Glo luminescence, 16 h; at 58.5 µM (top of the series)
[13] = qHTS assay to identify small molecule antagonists of the androgen receptor (AR) signaling pathway using the MDA cell line - cell viability counter screen (AID 743041; note: nearly all actives have a fitted effect of over 45% in size); conditions: MDA-kb2 viability, CellTiter-Fluor, 16 h, cells co-treated with R1881 androgen agonist; at 70.3 µM (top of the series)
Method in brief: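 qHTS viability read-out; MDA-kb2 AR-luc; R1881-stimulated; 16 h exposure at 37C, 0% CO2; CellTiter-Fluor, 30 min; fluorescence intensity.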

[14] = qHTS assay to identify small molecule antagonists of the thyroid receptor (TR) signaling pathway (AID 743065); conditions: GH3.TRE-Luc, T3-stimulated luciferase inhibition, 23.5 h; at 70.3 µM (top of the series); note: nearly all actives have a fitted effect of over 55% in size
Method in brief: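 GH3.TRE-Luc rat pituitary cells carrying two TR response elements driving luciferase were plated for 4 h, given compound plus 1 nM T3 (final), and incubated 23.5 h at 37 C. ONE-Glo luminescence measured reporter inhibition; CellTiter-Fluor fluorescence tracked cytotoxicity.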

[15] = qHTS assay to identify small molecule antagonists of the estrogen receptor alpha (ER-alpha) signaling pathway using the BG1 cell line (AID 743080; calls by dose curve;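 note: BG1 cells stimulated with 17beta-estradiol alongside compound; nearly all actives have a fitted effect of over 25% in size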); conditions: BG1Luc4E2 ERE-luciferase antagonist mode, luminescence; at 70.3 µM (top of the series)
Method in brief: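 Endogenous full-length ER-alpha in BG1-Luc-4E2 cells drives a stably integrated 4×ERE luciferase gene; compounds were tested against 17beta-estradiol over 21.5 h, with luminescence and multiplexed viability fluorescence recorded.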

[16] = molecular target: Aryl hydrocarbon receptor (Homo sapiens) (UniProt P35869); experiment: qHTS assay to identify small molecule that activate the aryl hydrocarbon receptor (AhR) signaling pathway (AID 743085); conditions: HepG2 AhR-luc (HG2L7.5c1), luciferase, 24 h; at 70.3 µM (top of the series);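 note: HG2L7.5c1 human HepG2 liver cells with stably integrated DRE-driven firefly reporter; nearly all actives have a fitted effect of over 15% in size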
[17] = molecular target: Estrogen receptor (Homo sapiens) (UniProt P03372); experiment: qHTS assay to identify small molecule antagonists of the estrogen receptor alpha (ER-alpha) signaling pathway (AID 743069; active = well fitted curve in the direction sought with a large enough effect in the signal ratio in the repeat runs, not every such curve was filed as active; the % refers to the signal ratio); conditions: HEK293 ER-alpha-UAS-bla, beta-lactamase ratio, antagonist mode; at 69.4 µM (top of the series)
Method in brief: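 Screening used a UAS-driven beta-lactamase reporter integrated into HEK293 cells expressing ER-alpha, stimulated with 17beta-estradiol alongside test compounds over 18 hr at 37C; signal came from LiveBLAzer B/G FRET fluorescence.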

[18] = molecular target: Estrogen receptor (Homo sapiens) (UniProt P03372); experiment: qHTS assay to identify small molecule agonists of the estrogen receptor alpha (ER-alpha) signaling pathway using the BG1 cell line (AID 743079); conditions: BG1Luc4E2 cells, ERE-luciferase agonist, 22 h; at 70.3 µM (top of the series); note: nearly all actives have a fitted effect of over 20% in size
[19] = qHTS assay to identify small molecule antagonists of the thyroid receptor (TR) signaling pathway - cell viability counter screen (AID 743064); conditions: GH3.TRE-Luc viability, CellTiter-Fluor, 24 h; at 70.3 µM (top of the series); note: nearly all actives have a fitted effect of over 50% in size
Method in brief: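 GH3.TRE-Luc rat pituitary cells carrying a TRE-luciferase reporter were treated with compound plus 1 nM T3 (final) for 23.5 h at 37 °C. Viability was then read in the same wells by CellTiter-Fluor fluorescence after a further 30 min.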
% is set by controls: 0 for no effect and ±100 for the full control effect.

Row | SMILES | viability change, negative = cytotoxic [1] | Potency [2] | Potency [3] | Potency [4] | activation [5] | activity change [6] | activation [7] | activity, negative = cytotoxicity [8] | activation [9] | Potency [10] | activity, negative = inhibition (Aromatase (Homo sapiens)) | activity change, negative = cytotoxicity [11] | activity change, negative = cytotoxicity [12] | viability change, negative = cytotoxic [13] | activity, negative = inhibition [14] | activity change, negative = inhibition [15] | activation [16] | activity, negative = inhibition [17] | activation [18] | activity change, negative = cytotoxic [19]
1 | CCC(=O)N(c1ccccc1)C1(COC)CCN(CCc2cccs2)CC1 | inactive: -2.28% | active: 4.32 µM | active: 21.7 µM | active: 19.3 µM | inactive: -3.38% | inactive: -6.85% | inactive: -7.01% | inactive: -29.5% | inactive: -1.69% | inactive | inactive: -1.9% | inactive: -5.95% |  |  |  |  |  |  |  | 
2 | CCC(=O)N(c1ccccc1)C1(COC)CCN(CCn2nnn(CC)c2=O)CC1 | inactive: -8.95% |  | inactive | inactive |  |  | inactive: -1.31% | inactive: -16% |  | inactive | inactive: 6.68% |  | inactive: 0.951% | inactive: 0.0469% | inactive: -7.37% | inactive: -5.63% | inactive: 0.214% |  |  | 
3 | CCC(=O)N(c1ccccc1)C1CCN(CCc2ccccc2)CC1 | inactive: -0.882% | active: 13.3 µM |  | active: 26.6 µM |  |  |  | inactive: -8.95% | inactive: -1.8% | inactive | inactive: 8.74% | inactive: -0.0263% | inactive: 1.46% | inactive: 0.62% |  | inactive: 1.11% | inactive: 4.01% | inactive: 3.18% | inactive: 16.4% | 
4 | O=[N+]([O-])C(Cl)(Cl)Cl | inactive: 4.64% | inactive | inactive | inactive |  |  | inactive: 0.474% |  |  | inactive | inactive: 13% | inactive: 2.72% | inactive: 5.84% | inactive: -3.27% | inactive: 3.25% | inactive: -14.8% | inactive: -0.289% |  |  | inactive: 9.82%
5 | CN(CCCl)CCCl |  |  | active: 5.96 µM and active: 3.85 µM |  |  |  | inactive: -7.5% |  |  | inactive and active: 61 µM |  |  |  |  |  |  | inactive: 0.396% and inactive: -2.95% |  |  | 
